Data from ChEMBL document CHEMBL1208697 (Bioorg Med Chem Lett, 2010).

Test: Selectivity index, ratio of IC50 for sheep COX1 to IC50 for human COX2

Structure (SMILES): NS(=O)(=O)c1ccc(-n2nc(C(F)(F)F)cc2-c2ccc(/[N+]([O-])=N\O)cc2)cc1
- Ratio IC50: 0.95
